The target in the assay is rat NPFF1 receptor (Rattus norvegicus, UniProt Q9EP86). As to the kind of experiment: [125I]D-Tyr-NPFF radioligand binding, membranes of COS-7 cells transiently expressing cloned rat NPFF1. The following applies: competition of [125I]D-Tyr-NPFF binding; COS-7 membranes. More on the design: expressed in transfected cells; host or cells: COS-7 (transient). How it is done:
Transfected cells from culture flasks are scraped into 5 ml of 20 mM Tris-HCl, 5 mM EDTA, pH 7.5, and lysed by sonication. The cell lysates are centrifuged at 1000 rpm for 5 min. at 4° C., and the supernatant is centrifuged at 30,000×g for 20 min. at 4° C. […] Optimal membrane suspension dilutions, defined as the protein concentration required to bind less than 10% of the added radioligand, […], unlabeled compounds, and binding buffer to a final volume of 250 μl. In equilibrium saturation binding assays membrane preparations are incubated in the presence of increasing concentrations of [^3H]-labeled compound. […] Competition assay: 50 pM radioligand, 10-12 points. Binding reaction mixtures are incubated for 2 hr at 25° C., and the reaction stopped by filtration through a double layer of GF filters treated with 0.1% polyethyleneimine, using a cell harvester. Wash buffer: 50 mM Tris-HCl, 0.1% BSA. Radioactivity may be measured by scintillation counting and data are analyzed by a computerized non-linear regression program. Non-specific binding is defined as the amount of radioactivity remaining after incubation of membrane protein in the presence of 1 μM final concentration […]. Protein concentration may be measured by the Bradford method using Bio-Rad Reagent, with bovine serum albumin as a standard. […]

By UniProt entry, the sequences of proteins in these tests, tags left out. Where a name states a change or a piece, a line headed by the entry shows the natural chain unless it says otherwise.
UniProt Q9EP86: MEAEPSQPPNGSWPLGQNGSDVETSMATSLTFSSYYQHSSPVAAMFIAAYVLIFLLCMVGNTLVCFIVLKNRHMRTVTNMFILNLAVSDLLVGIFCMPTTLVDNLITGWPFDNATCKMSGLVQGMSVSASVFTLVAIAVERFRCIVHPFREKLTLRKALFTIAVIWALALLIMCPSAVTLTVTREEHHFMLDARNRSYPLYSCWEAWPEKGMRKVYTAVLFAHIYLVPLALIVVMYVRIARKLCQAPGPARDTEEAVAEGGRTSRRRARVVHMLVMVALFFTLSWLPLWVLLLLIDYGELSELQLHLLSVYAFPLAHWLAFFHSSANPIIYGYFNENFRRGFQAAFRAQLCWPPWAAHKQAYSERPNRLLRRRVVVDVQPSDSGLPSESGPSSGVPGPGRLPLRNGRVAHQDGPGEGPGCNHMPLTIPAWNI

Structures are written as SMILES. A value given as a limit tells only on which side of the number the result lay.

The values below come from patent publication US7276339B2 (H. Lundbeck A/S, priority 1998, dated 2007).

Consider `CC(C)C[C@H](NC(=O)CNC(=O)[C@H](C)NC(=O)[C@H](CC(C)C)NC(=O)[C@H](CCCNC(=N)N)NC(=O)[C@H](Cc1c[nH]cn1)NC(=O)[C@@H](NC(=O)[C@@H](NC(=O)[C@@H]1CSSC[C@H](NC(=O)[C@H](C)N)C(=O)N[C@@H](CC(=O)O)C(=O)N[C@@H]([C@@H](C)O)C(=O)N[C@@H](C)C(=O)N[C@@H]([C@@H](C)O)C(=O)N1)C(C)C)[C@@H](C)O)C(=O)N[C@@H](CC(C)C)C(=O)N[C@@H](CO)C(=O)N[C@@H](CCCNC(=N)N)C(=O)N[C@@H](CO)C(=O)NCC(=O)NCC(=O)N[C@H](C(=O)N[C@H](C(=O)N[C@@H](CCCCN)C(=O)N[C@@H](CC(N)=O)C(=O)N[C@@H](CC(N)=O)C(=O)N[C@@H](Cc1ccccc1)C(=O)N[C@H](C(=O)N1CCC[C@H]1C(=O)N[C@H](C(=O)N[C@@H](CC(N)=O)C(=O)N[C@H](C(=O)NCC(=O)N[C@@H](CO)C(=O)N[C@@H](CCCCN)C(=O)N[C@@H](C)C(=O)N[C@@H](Cc1ccccc1)C(N)=O)C(C)C)[C@@H](C)O)C(C)C)C(C)C)C(C)C` [CGRP], for which the “pKi for cloned rat NPFF1 receptor binding in COS-7 cells, MEAN” value is on record as ≤ 5.
